What was measured:
D(3) dopamine receptor = D(3) dopamine receptor (Homo sapiens, UniProt P35462); assay: Binding affinity to D3R (unknown origin) assessed as inhibition constant
D(2) dopamine receptor = D(2) dopamine receptor (Homo sapiens, UniProt P14416); assay: Binding affinity to D2R (unknown origin) assessed as inhibition constant

Amino acid sequences for entries named in this document (tags omitted).
UniProt P35462, whole entry, looked up: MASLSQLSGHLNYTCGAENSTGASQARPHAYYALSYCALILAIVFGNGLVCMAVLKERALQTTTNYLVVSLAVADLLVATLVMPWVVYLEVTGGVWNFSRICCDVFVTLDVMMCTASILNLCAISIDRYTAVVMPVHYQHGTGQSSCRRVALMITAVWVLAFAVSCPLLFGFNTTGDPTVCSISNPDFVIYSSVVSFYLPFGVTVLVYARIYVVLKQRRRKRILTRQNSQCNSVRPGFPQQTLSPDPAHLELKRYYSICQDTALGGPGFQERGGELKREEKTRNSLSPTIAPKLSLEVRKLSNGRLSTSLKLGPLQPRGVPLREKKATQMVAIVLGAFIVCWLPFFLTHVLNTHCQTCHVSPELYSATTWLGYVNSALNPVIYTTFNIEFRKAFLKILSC
UniProt P14416, whole entry, looked up: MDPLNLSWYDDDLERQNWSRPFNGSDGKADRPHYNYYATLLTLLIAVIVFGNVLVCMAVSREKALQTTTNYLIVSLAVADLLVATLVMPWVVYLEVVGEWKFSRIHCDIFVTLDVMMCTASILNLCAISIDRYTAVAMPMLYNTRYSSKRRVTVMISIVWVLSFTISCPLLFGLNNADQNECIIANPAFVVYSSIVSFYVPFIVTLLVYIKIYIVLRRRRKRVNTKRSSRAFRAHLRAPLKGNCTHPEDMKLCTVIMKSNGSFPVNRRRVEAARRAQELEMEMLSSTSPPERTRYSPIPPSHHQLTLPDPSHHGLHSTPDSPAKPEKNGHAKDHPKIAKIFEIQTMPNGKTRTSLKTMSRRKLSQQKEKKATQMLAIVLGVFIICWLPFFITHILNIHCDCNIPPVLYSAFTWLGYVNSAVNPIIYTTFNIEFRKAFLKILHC

O=c1cc(CNC[C@@H](CO)Cc2ccsc2)[nH]c2ccc(F)cc12
Ki (D(3) dopamine receptor): > 10 µM
Ki (D(2) dopamine receptor): > 10 µM
